Reference: paper PMC9388496 (Communications Biology, 2022)

Target: T1, tumor necrosis factor (TNF)-α (Homo sapiens (; assumed), UniProt P01375)
T1 construct: TNF-α; also called TNF-a; cognate Ag; source: bought: Peprotech
Assay: SPR; VEGF-165 or TNF-α immobilised (~300 RU) on CM5 by amine coupling; 100 nM ABT injected at pH 5.5 (67 mM phosphate, 0.15 M NaCl, 0.005% Tween20), 20 μl/min
Settings: both partners purified

B1: infliximab (Remicade) (antibody, V domains shown)
VH: EVKLEESGGGLVQPGGSMKLSCVASGFIFSNHWMNWVRQSPEKGLEWVAEIRSKSINSATHYAESVKGRFTISRDDSKSAVYLQMTDLRTEDTGVYYCSRNYYGSTYDYWGQGTTLTVSS
VL: DILLTQSPAILSVSPGERVSFSCRASQFVGSSIHWYQQRTNGSPRLLIKYASESMSGIPSRFSGSGSGTDFTLSINTVESEDIADYYCQQSHSWPFTFGSGTNLEVK
notes: murine VH; human IgG1 heavy chain constant region; light chain with murine VL; Chimeric IgG1; www.drugbank.com is named among the repositories used; also called anti-TNF-α IgG1; source: bought: from the pharmacy; buffer-exchanged into PBS and run on SEC
Does B1 bind?
Result: binds
